Cneo AK release: Cryptococcus neoformans lysis via adenylate kinase release. C. neoformans lysis, adenylate kinase release luminescence, 4 h; normalised: neutral wells 0, clomiphene wells 100. lysis activity, % at 15 µM. hit rate 0.2% among 360,000;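 active = mean lysis activity across replicates of at least 80%, whatever share of replicates individually reach that level; inactive = mean lysis activity below 80%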
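Material – Cryptococcus neoformans yeast cells · Quantity – 5 × 10^6 yeast cells/mL · Buffer or medium – YPD medium · Compound – single dose · Timing – 4 h static compound exposure, 37 °C, read 1 h post-reagent · Signal – adenylate kinase release luminescence · Read-out basis – lysis from increased AK signal · Benchmarks – Clomiphene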
UUG fidelity: modulators of yeast start codon fidelity, primary screen, whole organism, S. cerevisiae, single point, plate reader; S. cerevisiae UUG-firefly luciferase reporter, luminescence/redox ratio; activity score, % at 18.7 µM; actives 0.13% (n = 350,000);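 active means replicate mean at a twofold rise or more, about +100% in these data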;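 further: firefly luciferase made from a UUG start codon reports start codon fidelity; reporter light over untreated wells divided by growth signal over untreated wells; some hits fall short of that in this replicate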
miR-122 sensor: blocks miR-122 activity in Huh7 sensor cells. Huh7 miR-122 Renilla luciferase sensor, 48 h; neutral wells = 0, positive control = 100. hit rate 0.3% among 340,000. activation (reporter increase), % at 12.5 µM;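 active = mean replicate activation score at least 90 and every replicate individually at or above 90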;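 also: higher luciferase means less miR-122 activity so hits act as miR-122 inhibitors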
C2C12 statin: suppressors of simvastatin-induced myotoxicity in C2C12 myotubes; rescue of ATP level, % at 7.49 µM; ATP luminescence, 48 h; scaled: DMSO 0, geranylgeraniol control 100; hit rate 0.78% among 330,000; AID 602340;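 active = mean ATP rescue above about 67%, or every replicate alone reaching that limit, limit read from the data, passing the limit was not always enough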;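 also: myotubes were challenged with 10 µM simvastatin during compound exposure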
Hits are given with their value; n = inactive; x = no result given; [ ] = another dose, or the depositor's remark. A selection: hits, their analogues and other compounds. The true share with any hit is near 1.2%.

SMILES	Cneo AK release	UUG fidelity	miR-122 sensor	C2C12 statin
COCCNC(=O)CN(C(=O)CCC(=O)Nc1nccs1)c1ccccc1OC	n	n	n	108.8
CC(=O)c1cc2c(cc1NC(=O)c1c(-c3ccccc3)noc1C)OCO2	n	n	n	84.6
CC(C)C(NC(=O)c1ccc(C(C)(C)C)cc1)C(=O)NCc1ccccn1 (centres undefined)	n	n	x	n
COc1ccc(C(=O)NC(C(=O)NCc2ccccn2)C(C)C)cc1 (centres undefined)	n	x	n	136.1
C[C@@H]1CCCCO[C@H](CN(C)S(=O)(=O)c2ccc(F)cc2)[C@@H](C)CN([C@H](C)CO)C(=O)c2cc(NC(=O)c3ccncc3)ccc2O1	n	n	n	x
CCn1c(CSCc2ccccc2)n[nH]c1=S	n	n	n	n
CCn1c(CSc2nc3ccccc3[nH]2)n[nH]c1=S	n	n	n	100.5
O=C(C/C=N/OCc1c(Cl)cccc1Cl)c1cnc(-c2ccccc2)s1	n	n	n	107.8
O=C(CCN1CCCCC1)N[C@H]1CC[C@@H](CCn2cc(-c3ccc(F)cc3)nn2)O[C@@H]1CO	n	n	x	n
Cc1cccc(/C=C(\c2nc3ccccc3[nH]2)S(=O)(=O)c2ccccc2)c1	x	x	n	77.9
CC(C)(C)c1ccc(/C=C(\c2nc3ccccc3[nH]2)S(=O)(=O)c2ccccc2)cc1	n	n	n	n
C[C@@H]1CN([C@H](C)CO)C(=O)c2cc(N(C)C)ccc2O[C@@H]1CN(C)C	n	n	n	n
Cc1noc(C)c1NC(=O)Nc1cccc2c1O[C@H](CN(C)Cc1ccc(-c3ccccc3)cc1)[C@@H](C)CN([C@@H](C)CO)C2=O	n	n	n	98.5
CC(C)NC(=O)Nc1cccc2c1O[C@H](CN(C)Cc1ccc(-c3ccccc3)cc1)[C@@H](C)CN([C@@H](C)CO)C2=O	n	n	n	65.9
C[C@@H]1CN([C@@H](C)CO)C(=O)c2cccc(NC(=O)NC3CCCCC3)c2O[C@@H]1CN(C)Cc1ccc(Oc2ccccc2)cc1	n	n	n	x
COc1ccc(CN(C)C[C@H]2Oc3c(NC(=O)NC4CCCCC4)cccc3C(=O)N([C@H](C)CO)C[C@@H]2C)cc1	n	n	255.2[16.7 µM]	n
C[C@@H]1CN([C@H](C)CO)S(=O)(=O)c2ccc(C#CC3CCCCC3)cc2O[C@@H]1CN(C)Cc1cccnc1	n	n	n	n
Cc1noc(C)c1NC(=O)N(C)C[C@H]1Oc2cc(C#CCC3CCCC3)ccc2S(=O)(=O)N([C@@H](C)CO)C[C@H]1C	n	x	n	n
CC(=O)c1sc(NC(=O)C2(F)C(F)(F)C(F)(F)C(F)(F)C(F)(F)C2(F)F)nc1C	136.5	n	n	n
CC(=O)c1sc(NC(=O)C=C(C)C)nc1C	n	n	n	n
Cc1cc(C)nc(NS(=O)(=O)c2ccc(NC(=O)c3cccs3)cc2)n1	n	n	n	n
Cc1cc(C)cc(NS(=O)(=O)c2ccc(NC(=S)NC(=O)c3cccs3)cc2)c1	n	n	132.7	x
O=c1cc(-c2ccco2)oc2ccc(Cl)cc12	n	n	n	73.2
Cc1cc(O)c(C(C)C)cc1N=Nc1ccccc1C(=O)O	n	n	189.7	n
COc1cc(S(=O)(=O)Nc2ncccc2C)c(OC)cc1Cl	n	n	n	121.1
SMILES	Cneo AK release	UUG fidelity	miR-122 sensor	C2C12 statin
C[C@@H]1CN([C@H](C)CO)C(=O)c2cccc(NS(=O)(=O)c3ccccc3)c2O[C@H]1CN(C)Cc1ccc(-c2ccccc2)cc1	n	n	n	n
Cc1ccc(NC(=S)NC(=O)c2cncc(Br)c2)c(C)c1	n	n	n	x
Cc1nc(NC(=S)NC(=O)c2cncc(Br)c2)ccc1Br	n	n	n	102.0
Cc1ccccc1C(=O)Nc1ccc(Br)c(C)n1	n	n	127.9	n
CN(C(=O)CSc1nc(-c2ccccc2)cn1N)C(c1ccccc1)c1ccccc1	n	n	n	78.2
COc1ccc(NC(=O)Cn2ccc(C(F)(F)F)n2)cc1S(=O)(=O)N1CCOCC1	n	n	n	100.8
CO[C@H]1CN(C)C(=O)c2ccc(NC(=O)C3CC3)cc2OC[C@@H](C)N(C(=O)c2cccnc2)C[C@@H]1C	n	n	x	n
CCC(C)(C)NC(=O)C(c1cccn1C)N(C(=O)Cn1nnc2ccccc21)c1ccc(OC)cc1OC (centres undefined)	n	n	91.7	n
NC(=O)Cn1cc(/C=N\NS(=O)(=O)c2ccc(Cl)cc2)c2ccccc21	n	n	127.8	n
Cc1ccc(S(=O)(=O)N/N=C\c2cn(CC(N)=O)c3ccccc23)cc1C	n	n	x	n
CC1CC(=O)C(C(C2=C(O)CC(C)CC2=O)c2ccccc2)=C(O)C1 (centres undefined)	n	n	n	100.8
CC1CC(=O)c2cc(-c3ccccc3)oc2C1 (centres undefined)	n	n	x	n
Fc1ccccc1NC(=S)NN(Cc1ccccc1)c1ccccc1	x	x	n	x
CC(C)c1ccccc1NC(=S)NN(Cc1ccccc1)c1ccccc1	230.6	n	n	x
CN1C(=O)c2cc(NC(=O)Cc3cccs3)ccc2OC[C@@H]2O[C@@H](CC(=O)NCC3CCCCC3)CC[C@@H]21	n	n	195.6[16.7 µM]	n
CN1C(=O)c2cc(NC(=O)Cc3cccs3)ccc2OC[C@@H]2O[C@H](CC(=O)NCc3ccc(-c4ccccc4)cc3)CC[C@@H]21	n	x	188.3[16.7 µM]	n
CN1C(=O)c2cc(NC(=O)NCc3ccccc3)ccc2OC[C@@H]2O[C@@H](CC(=O)NCC3CCCCC3)CC[C@@H]21	n	n	120.0[16.7 µM]	n
CN1C(=O)c2cc(NC(=O)c3cscn3)ccc2OC[C@H]2O[C@H](CC(=O)NCc3ccc(Cl)c(Cl)c3)CC[C@H]21	n	x	n	78.2
COc1ccc(NC(=O)N(C)C[C@H]2Oc3c(NS(=O)(=O)c4ccc(OC)cc4)cccc3C(=O)N([C@@H](C)CO)C[C@H]2C)cc1	n	n	n	n
C[C@@H]1CN([C@H](C)CO)C(=O)c2cc(NC(=O)CCC(F)(F)F)ccc2O[C@@H](C)CCCCO[C@@H]1CN(C)C(=O)C1CCCCC1	n	n	n	x
Cc1ccccc1NC(=O)Nc1ccc2c(c1)C(=O)N(C)[C@H]1CC[C@H](CC(=O)NCC3CC3)O[C@H]1CO2	n	n	227.8[16.7 µM]	n
CN1C(=O)c2cc(NC(=O)Cc3ccccc3)ccc2OC[C@@H]2O[C@@H](CC(=O)NCc3ccc(Cl)cc3)CC[C@@H]21	n	n	233.3[16.7 µM]	n
O=C(O)[C@H]1[C@H](CO)[C@H]2Cn3c(ccc(-c4ccccc4)c3=O)[C@H]2N1Cc1ccccc1F	n	x	x	n
CCC(=O)N(C)C[C@@H]1Oc2cc(-c3ccccc3)ccc2S(=O)(=O)N([C@H](C)CO)C[C@H]1C	n	n	n	n
Cc1cc(C)c2nc(N3CCN(C(=O)c4cccs4)CC3)sc2c1	147.7	n	x	x
Cc1ccc(S(=O)(=O)N2CCN(C(=O)c3cccs3)CC2)cc1C	n	n	n	118.3
C[C@@H]1CN([C@@H](C)CO)C(=O)c2cccc(NS(=O)(=O)c3ccc(F)cc3)c2O[C@@H]1CN(C)Cc1ccc(C(F)(F)F)cc1	n	n	n	n

From PubChem
